Patent publication US20050069522A1, “Combination pharmaceutical agents as inhibitors of HCV replication” (priority 2002, published 2005)

Test system: HCV replicon
Assay: Combination studies in the HCV replicon system (FRET assay)
Type: cell-based
[1] = combined with Compound 81, molar ratio 1:1 (first number Compound 81)
[2] = combined with Compound 81, molar ratio 1:2.5 (first number Compound 81)
[3] = combined with Compound 81, molar ratio 2.5:1 (first number Compound 81)

Q: With “Intron A: IFN-α2b, Schering-Plough Corporation (Table 1)” as the substance, how does the “response in combination with Compound 81” value (all drug ratios, 50 and 75% effective levels) read?
A: synergistic response

Q: What about the “Overall Result” value (combined with Compound 81, molar ratio 1:1) of the same substance?
A: Synergistic

Q: And the “CI at HCV inhibition of: 50%” value [1]?
A: 0.62 +/− 0.08

Q: And the “CI at HCV inhibition of: 75%” value [1]?
A: 0.55 +/− 0.09

Q: And the “Overall Result” value (combined with Compound 81, molar ratio 1:2.5)?
A: Synergistic

Q: And the “CI at HCV inhibition of: 50%” value [2]?
A: 0.7 +/− 0.07

Q: What about the “CI at HCV inhibition of: 75%” value [2] of the same substance?
A: 0.55 +/− 0.08

Q: What about the “Overall Result” value (combined with Compound 81, molar ratio 2.5:1) of the same substance?
A: Synergistic

Q: What about the “CI at HCV inhibition of: 50%” value [3] of the same substance?
A: 0.65 +/− 0.08

Q: And the “CI at HCV inhibition of: 75%” value [3]?
A: 0.51 +/− 0.07

Q: What about the EC50 in monotherapy (monotherapy, 72 h, FRET assay) of the same substance?
A: 9 U/ml
